Experimental data from ChEMBL document CHEMBL3886164, “Bicyclic heterocycle compounds and their uses in therapy” (2015).

Biological target: Baculoviral IAP repeat-containing protein 2 (Homo sapiens, UniProt Q13490)
Test: In Vitro Competitive Displacement Binding Assay: Modified SMAC peptides and compounds were tested for their ability to displace the fluorescent tracer from either XIAP, cIAP-1 or cIAP-2. BIR3 domains of cIAP-1, cIAP-2 and XIAP were incubated with test compounds or SMAC based peptides and their respective peptide probes (Peptide Protein Research) in assay buffer (50 mM Hepes pH 7.5, 0.025% …

IC50: in the range around 505 nM
Structure (SMILES): CCC1(CC)Oc2nc(NC(=O)[C@@H](C)NC)ccc2N(c2ccc(Cl)cc2)C1=O
